Values quoted from earlier work in publication PMC10223992, “In Silico-Motivated Discovery of Novel Potent Glycogen Synthase-3 Inhibitors: 1-(Alkyl/arylamino)-3H-naphtho[1,2,3-de]quinoline-2,7-dione Identified as a Scaffold for Kinase Inhibitor Development” (Pharmaceuticals, 2023).

System: GSK-3β
Parameters: method as in ChEMBL database [53]
Conditions: Table S1, ChEMBL data; ref ChEMBL database [53]; read-out: IC50 (GSK-3β, known actives); cited from earlier work

Question: With NC(=O)c1cc(-c2ccncc2F)[nH]c1-c1ccccc1 [CHEMBL1271441] as the molecule, how does the IC50 read?
Answer: 0.1 µM
